Measured values reported in paper PMC2832854 (NeuroImage, 2009).
Read-outs that look alike come from different tables or passages of the source.

Test system: TSPO
Assay type: in vivo, rhesus monkeys
Details: for VT % change: blocked vs baseline; for Specific binding (VS): difference in VT at baseline and blocked

In the case of `CC[C@@H](C)N([11CH3])C(=O)c1cc2ccccc2c(-c2ccccc2Cl)n1` [[^11C]-(R)-PK 11195], the Peak plasma concentration (after blockade with PBR28 5 mg/kg i.v.) is reported as 23.4 SUV, the “Specific binding (VS), average” value (average of the four regions) is reported as 1.96 mL • cm^−3 and the Peak plasma concentration (baseline) is reported as 8.82 SUV. The “VT (total distribution volume)” value (cerebellum, baseline) was 2.60 mL • cm^−3, the “VT (total distribution volume)” value (cerebellum, blocked (PBR28 5 mg/kg i.v.)) was 1.38 mL • cm^−3 and the VT % change (cerebellum) was −45%. For the same compound, the “Specific binding (VS)” value (cerebellum) was 1.22 mL • cm^−3, the “VT (total distribution volume)” value (frontal cortex, baseline) was 3.82 mL • cm^−3 and the “VT (total distribution volume)” value (frontal cortex, blocked (PBR28 5 mg/kg i.v.)) was 1.49 mL • cm^−3. For the same compound, the VT % change (frontal cortex) was −61%, the “Specific binding (VS)” value (frontal cortex) was 2.33 mL • cm^−3 and the “VT (total distribution volume)” value (occipital cortex, baseline) was 4.56 mL • cm^−3. For the same compound, the “VT (total distribution volume)” value (occipital cortex, blocked (PBR28 5 mg/kg i.v.)) was 1.44 mL • cm^−3, the VT % change (occipital cortex) was −64% and the “Specific binding (VS)” value (occipital cortex) was 3.12 mL • cm^−3. The “VT (total distribution volume)” value (parietal cortex, baseline) was 2.82 mL • cm^−3, the “VT (total distribution volume)” value (parietal cortex, blocked (PBR28 5 mg/kg i.v.)) was 1.65 mL • cm^−3 and the VT % change (parietal cortex) was −40%. For the same compound, the “Specific binding (VS)” value (parietal cortex) was 1.17 mL • cm^−3.
